Measured values as given in ChEMBL document CHEMBL1138903, “Secondary amides of sulfonylated 3-amidinophenylalanine. New potent and selective inhibitors of matriptase” (J Med Chem, 2006).

Biological target: Suppressor of tumorigenicity 14 protein (Homo sapiens, UniProt Q9Y5Y6)

Row | Ki [nM] | Compound
1 | 320 | CCOC(=O)N1CCN(C(=O)[C@H](Cc2cccc(C(=N)N)c2)NS(=O)(=O)c2c(C(C)C)cc(C(C)C)cc2C(C)C)CC1
2 | 14 | CC(C)c1cc(C(C)C)c(S(=O)(=O)N[C@@H](Cc2cccc(C(=N)N)c2)C(=O)N2CCN(C(=O)C3CCN(C(=N)N)CC3)CC2)c(C(C)C)c1
